# According to paper PMC12147714 (FEMS Microbiology Letters, 2025):
# Chains of the proteins cited; added tags and fusions are not shown. Residues count along the entry.
# UniProt C7C422, 29-270 limits assumed: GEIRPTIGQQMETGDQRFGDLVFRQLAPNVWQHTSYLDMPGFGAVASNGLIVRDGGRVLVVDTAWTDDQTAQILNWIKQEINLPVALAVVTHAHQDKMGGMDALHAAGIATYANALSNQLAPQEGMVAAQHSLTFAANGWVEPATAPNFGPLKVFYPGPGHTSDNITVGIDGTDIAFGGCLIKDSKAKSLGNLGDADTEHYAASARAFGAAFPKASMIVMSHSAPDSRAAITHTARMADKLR
# Legend:
# [1] = system: PAO1 producing KPC-2; settings: antibiotic alone
# [2] = system: PAO1 TnoprD producing NDM-1; assay: MIC and checkerboard by broth microdilution, recombinant strain; format: cell-based, Pseudomonas aeruginosa; settings: NDM-1 TnoprD; antibiotic alone
# [3] = system: PAO1 TnoprD producing VIM-1; assay: as above; format: cell-based, Pseudomonas aeruginosa; settings: VIM-1 TnoprD; antibiotic alone
# [4] = target: NDM-1 (Klebsiella pneumoniae, UniProt C7C422); assay: IC50, inhibition of cephalothin hydrolysis by crude extract
SMILES,MIC [1] [µg/mL],MIC [2] [µg/mL],MIC [3] [µg/mL],IC50 [4] [µM]
"C[C@@H](O)[C@H]1C(=O)N2C(C(=O)O)=C(SCCN=CN)C[C@H]12 [IPM, imipenem]",128,128,128,
"O=C(O)c1c(F)ccc2c1OB(O)[C@@H]1C[C@H]21 [XER, xeruborbactam]",,,,4.3
